# Test results taken from PubChem BioAssay AID624483 (NMMLSC, 2012).
# The entries are a selection whose mix differs from that of the whole data set. Some results for these compounds are left out of this collection, so the calls shown say nothing about other tests. Calls of active or inactive are those of the source. No stated cut-off is given here; in the data, active means fluorescence intensity above about 16000; inconclusive means no clear call, values can overlap the other calls; inactive means below that.
# Assay: compound fluorescence in toxin protease inhibitor counterscreen, primary screen, artefact control for toxin protease inhibitor project, biochemical, multiplex microsphere, HTS (AID 624483); further: test concentration not given here
# Settings: compound autofluorescence counterscreen, microsphere flow cytometry; hits give high values
row,Structure (SMILES),fluorescence intensity
1,CN1[C@@H]2CC[C@H]1CC(OC(=O)C(O)(c1ccccc1)c1ccccc1)C2 (stereo partly specified),inactive: 3610
2,O=C(NCC1(N2CCCCC2)CCCCC1)c1cc([N+](=O)[O-])ccc1Cl,inactive: 4860
3,Cc1ccc(C(=O)NCC2(N3CCCCC3)CCCCC2)cc1,inactive: 9510
4,COc1cc(SC)ccc1C(=O)NCC1(N(C)C)CCCCC1,inactive: 3220
5,CCN(CC)CC(C)C(C)OC(=O)C(O)(c1ccccc1)c1ccccc1 (stereo unspecified),inactive: 3930
6,CC(C)N1C(=O)CC2(CCN(CCOC(=O)C(O)(c3ccccc3)c3ccccc3)CC2)C1=O,inactive: 4260
7,CN(C)C1CCCC1OC(=O)C(O)(c1ccccc1)c1ccccc1 (stereo unspecified),inactive: 2440
8,CN(C)c1ccc(C(=O)NCC2(N(C)C)CCCCC2)cc1,inactive: 4140
9,Cc1ccccc1C(=O)NCC1(N2CCCCC2)CCCCC1,inactive: 4200
10,COc1ccc(C(=O)NCC2(N(C)C)CCCCC2)cc1,inactive: 3550
11,O=C(NCC1(N2CCCCC2)CCCCC1)c1cccc(Br)c1,inactive: 6690
12,Cc1cc(C(=O)NCC2(N3CCCCC3)CCCCC2)ccc1[N+](=O)[O-],inactive: 4530
13,CCN1CCCC(OC(=O)C2(O)c3ccccc3C=Cc3ccccc32)C1 (stereo unspecified),inactive: 2500
14,O=C(NCC1(N2CCCCC2)CCCCC1)c1cc(F)c(F)cc1Cl,inactive: 7140
15,C=CCN1CCN(CCOC(=O)C(O)(c2ccccc2)c2ccccc2)CC1,inactive: 4160
16,COc1cc(C(=O)NCC2(N(C)C)CCCCC2)c([N+](=O)[O-])cc1OC,inactive: 3320
17,CN(C)C1(CNC(=O)c2ccc(Br)cc2)CCCCC1,inactive: 3920
18,O=C(NCC1(N2CCCCC2)CCCCC1)c1cccc(Cl)c1,inactive: 3350
19,COc1ccc(Cl)cc1C(=O)NCC1(N(C)C)CCCCC1,inactive: 3480
20,COc1cccc(C(=O)NCC2(N3CCCCC3)CCCCC2)c1,inactive: 5380
21,O=C(OC1CN2CCC1CC2)C(CO)(c1ccccc1)c1ccccc1 (stereo unspecified),inactive: 2280
22,O=C(OCCN1CCCC1)C(O)(c1ccccc1)c1ccccc1,inactive: 4110
23,CC(C)Oc1ccc(C(=O)NCC2(N(C)C)CCCCC2)cc1,inactive: 3160
24,CN(C)c1cccc(C(=O)NCC2(N(C)C)CCCCC2)c1,inactive: 2680
25,C=C(C)C#CC(O)(C(=O)OC1CCN(C)CC1)c1ccccc1 (stereo unspecified),inactive: 2900
26,COc1ccc(Br)c(C(=O)NCC2(N3CCCCC3)CCCCC2)c1,inactive: 9800
